Data reported in publication PMC11988775, “Glycyl-tRNA Synthetase as a Target for Antiviral Drug Screening Against Influenza Virus” (International Journal of Molecular Sciences, 2025).

Tested on: influenza viruses (A/PuertoRico/8/34 (H1N1), A/Guangdong-MaonanSWL1536/2019 (H1N1) pdm09, A/Victoria/4897/2022(H1N1), B/Colorado/06/2017(BV))
Assay type: cell-based, Influenza A and B virus

Compound: O=c1cc(-c2ccc(O)cc2)oc2cc(O)c(O)c(O)c12 [Scutellarein]
- antiviral Selectivity Index (SI): around 2
